Assay type: physicochemical
Procedure: Ras peptides were dissolved in either 100% dimethyl formamide (DMF, American Burdick and Jackson) or 100% dimethyl sulfoxide (DMSO, Fluka UV-spectroscopy grade) at a calculated peptide concentration of 1-4 mM. Following 1 minute in a Sonicor SC-200 bath sonicator at room temperature, the peptide solutions were vortexed, and then centrifuged for 5 minutes at room temperature in an Eppendorf microfuge to remove any undissolved material. 20 µL of the cleared peptide solutions were then added to 80 µL of Buffer D in a dilution series covering a range of peptide concentrations from 0.02 µM up to the maximum solubility limit for each peptide. In each dilution, the solvent concentration was maintained at 20%. […] Reactions were initiated upon addition of 5 µL of diluted GAP (10 fmol), and analyzed as described above.
The other portion of the cleared peptide solution was measured spectrophotometrically to determine solubility and concentration of the peptides. Extinction coefficients were determined by measuring the absorbance at 277 nm of 2 peptides whose exact concentrations were quantitated by amino acid analysis. […] In addition, peptide solubility was confirmed by comparing the light scattering at 600 nm for each peptide solution measured before and after centrifugation. […]

## CC[C@H](C)[C@H](NC(=O)[C@H](CC(C)C)NC(=O)[C@H](CCC(N)=O)NC(=O)[C@@H](NC(=O)[C@@H](NC(=O)[C@H](CC(C)C)NC(=O)[C@H](CCCNC(=N)N)NC(=O)[C@@H](N)CCCNC(=N)N)[C@@H](C)O)[C@@H](C)CC)C(=O)N[C@@H](CCC(N)=O)C(=O)N[C@@H](CC(N)=O)C(=O)N[C@@H](Cc1c[nH]cn1)C(=O)N[C@@H](Cc1ccccc1)C(=O)N[C@H](C(=O)N[C@@H](CC(=O)O)C(=O)N[C@@H](CCC(=O)O)C(=O)N[C@@H](Cc1ccc(O)cc1)C(=O)N[C@@H](CC(=O)O)C(N)=O)C(C)C [Ras 19-33(1)]
  Maximum Solubility: 4 mM

— patent EP0496162A2, “Peptide inhibitors of RAS-GAP interaction” (MERCK & CO. INC., priority 1990, dated 1992)
